According to patent publication US9290488B2, “Azetidine-substituted quinoxalines as opioid receptor like-1 modulators” (priority 2011, dated 2016):

Key:
[1] = In vitro metabolic stability, human liver microsomes; settings: % of compound remaining after 30 min incubation at 37° C., 2 μM, 0.5 mg/mL human liver microsomes
[2] = tested on: neuropathic hyperalgesia in rats; assay: Seltzer model: partial sciatic nerve ligation model of neuropathic pain (PWT); type: in vivo, rat; settings: for % Reversal [mean ± SEM]: partial sciatic nerve ligated rats

Compound	Metabolic Stability (%) Human [1]	% Reversal [mean ± SEM] ([2]; 1 mg/kg oral, 1 hour after administration) [%]	% Reversal [mean ± SEM] ([2]; 1 mg/kg oral, 3 hours after administration) [%]	% Reversal [mean ± SEM] ([2]; 1 mg/kg oral, 5 hours after administration) [%]	% Reversal [mean ± SEM] ([2]; 1 mg/kg oral, 7 hours after administration) [%]	% Reversal [mean ± SEM] ([2]; 1 mg/kg oral, pre-administration) [%]	% Reversal [mean ± SEM] ([2]; 3 mg/kg oral, 1 hour after administration) [%]	% Reversal [mean ± SEM] ([2]; 3 mg/kg oral, 3 hours after administration) [%]	% Reversal [mean ± SEM] ([2]; 3 mg/kg oral, 5 hours after administration) [%]	% Reversal [mean ± SEM] ([2]; 3 mg/kg oral, 7 hours after administration) [%]	% Reversal [mean ± SEM] ([2]; 3 mg/kg oral, pre-administration) [%]	% Reversal [mean ± SEM] ([2]; 10 mg/kg oral, 1 hour after administration) [%]	% Reversal [mean ± SEM] ([2]; 10 mg/kg oral, 3 hours after administration) [%]	% Reversal [mean ± SEM] ([2]; 10 mg/kg oral, 7 hours after administration) [%]	% Reversal [mean ± SEM] ([2]; 10 mg/kg oral, pre-administration) [%]	reversal of neuropathic hyperalgesia compared with pregabalin control ([2]; 1, 3, or 10 mg/kg, all measured time-points, pregabalin 10 mg/kg)	% reversal in rats that underwent sham surgery ([2]; sham surgery rats, 3 mg/kg, after 3 hrs (highest value of the sham groups)) [%]
O=C(O)[C@@H]1CCN1c1nc2ccccc2n([C@H]2C[C@H]3CCC[C@@H](C2)N3[C@H]2C[C@@H]3CCC[C@@H](C3)C2)c1=O	94 100%																
O=C(O)[C@@H]1CCN1c1nc2ccccc2n([C@H]2C[C@H]3CCC[C@@H](C2)N3[C@@H]2C[C@@H]3CCCC[C@@H](C3)C2)c1=O		37.5 ± 10.2	42.5 ± 7.6	39.4 ± 10.4	33.7 ± 7.7	0	39.0 ± 6.3	46.8 ± 5.7	34.1 ± 6.5	25.7 ± 6.5	0	39.3 ± 7.6	42.4 ± 7.0	29.5 ± 5.1	0	more effective reversal than the pregabalin control	95.3
